Bioassay records from PubChem BioAssay.
Rows were chosen to be rich in hits. Some 3.7% of all compounds tested hit in one or more screens of this group.
A549 viability: counter-screen for Nrf2 inhibitors: cytotoxicity in A549 cells; A549 ARE-Fluc cells, CellTiter-Fluor viability, 18-24 h; Potency, µM (doses to about 46 µM), actives largely listed as inhibitors; actives 0.16% (n = 390,000)
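A549 ARE-Fluc cells in 5% FBS OPTI-MEM, 5000 cells/well, rested 2 h then exposed to compounds in concentration-response for 18-24 h at 37 °C. Viability by CellTiter-Fluor fluorescence (Ex 405/Em 525) after 30 min; luciferase luminescence (BugLite, 15 min, RT) read afterwards.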
Nrf2 inh: Nrf2 pathway inhibition | A549 ARE-Fluc reporter, luciferase luminescence, 18-24 h | Potency, µM (series often up to 46 µM), actives largely listed as inhibitors | actives 2.1% (n = 360,000) | AID 504444; note: nearly all actives have a fitted effect of over 60% in size
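Quantitative HTS in A549 cells stably bearing an antioxidant response element-firefly luciferase construct. Inhibition of Nrf2-driven transcription was scored by luminescence after 18-24 h of compound exposure at 37 °C.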
miR-21 FLuc: raises the signal of a miR-21 reporter | AID 2288 | 340,000 tested, under 10 active | Potency, µM (series often up to 38.3 µM) | HeLa miR-21 FLuc reporter, luciferase, 48 h; active = well fitted rising curve with a large enough effect; inconclusive = small, poorly fitted or top-dose-only effect; inactive = no such curve, though single readings can be large or run the other way;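 further: miR-21 action dims this reporter so a rising signal means less miR-21 action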
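HeLa cells endogenously expressing miR-21, stably carrying CMV-driven firefly luciferase with a downstream miR-21 binding site, 2000 cells/well. Titrations up to approximately 40 uM, 48 hours; luciferase luminescence read.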
Nrf2 activator: activators of Nrf2 (ARE) signaling; AREc32 ARE-luciferase reporter (MCF7-derived line), luminescence, 24 h; Potency, µM (series often up to 46.1 µM), most hits filed as activators; actives 0.31% (n = 410,000); note: nearly all actives have a fitted effect of over 65% in size
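Cells of the AREc32 ARE-luciferase line are plated in OPTI-MEM containing 5% FBS and left overnight at 37 deg C. Compounds are pinned in, incubation continues 24 hr, and firefly luciferase signal is then measured.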
p53 reactivator: mutant p53 re-activation in reporter cells | H1299 p53-A138V BP100-luciferase reporter, luminescence, 24 h | Potency, µM (highest dose often 92.2 µM), usual class: activators | actives 0.063% (n = 320,000) | AID 504706; note: nearly all actives have a fitted effect of over 45% in size
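p53-null H1299 cells stably carrying temperature-sensitive p53-A138V and a BP100-luciferase reporter were pinned with compounds (4-point, 1:5 series) and held 24 hrs at 37 deg C. Luminescence was read 10 min after detection reagent.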
ClpP mod: qHTS Assay for Activators of ClpP. ATP-dependent Clp protease proteolytic subunit (Bacillus subtilis (strain 168)), P80244. purified B. subtilis ClpP, FRET peptide cleavage, 20 min. Potency, µM (top dose mostly 57.5 µM). actives 1.9% (n = 340,000). AID 651965, 2013; active = well fitted falling curve with a large enough effect; inconclusive = small, poorly fitted or top-dose-only effect; inactive = no such curve, though single readings can be large or run the other way; note: the source files actives as falling curves though it sought activators and does not explain the sign; nearly all actives have a fitted effect of over 65% in size
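FRET quenching reversal measured ClpP activation: 10 microg/mL B. subtilis ClpP at pH 8 with the FRET-FV decapeptide, read at 430 nm after 320 nm excitation. The 20-min minus 0-min signal was scaled between DMSO/no-enzyme wells and ADEP (5.8 microM final).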
Hits are given with their value; . = inactive; ? = inconclusive; / = not tested or not shown; [ ] = another dose, or the depositor's remark. Unless noted, calls come from the whole dose curve; as a rule, active = well fitted curve in the direction sought with a large enough effect; inconclusive = small, poorly fitted or top-dose-only effect, or another doubt; inactive = no such curve, though single readings can be large; an effect the other way counts as inactive or inconclusive.

Chains of the proteins cited; added tags and fusions are not shown.
ATP-dependent Clp protease proteolytic subunit (Bacillus subtilis (strain 168)), P80244, UniProt P80244, whole entry, looked up: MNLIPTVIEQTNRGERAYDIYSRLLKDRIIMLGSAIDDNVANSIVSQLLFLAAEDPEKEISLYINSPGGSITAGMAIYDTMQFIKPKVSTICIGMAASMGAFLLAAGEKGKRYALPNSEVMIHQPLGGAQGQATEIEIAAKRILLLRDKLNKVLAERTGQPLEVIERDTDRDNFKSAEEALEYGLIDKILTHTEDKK

SMILES	A549 viability	Nrf2 inh	miR-21 FLuc	Nrf2 activator	p53 reactivator	ClpP mod
COc1ccc(NC(=O)N2CCc3c(sc4c3CCCC4)C2c2ccccc2OC)cc1 (stereo not given)	.	.	.	.	/	.
O=Nc1c(-c2c(O)[nH]c3cc(Br)ccc23)[nH]c2ccccc12	21µM	10µM	.	.	/	.
FC(F)(F)c1cc(-c2cccs2)nc(-n2cc(Br)cn2)n1	.	.	.	3.2µM	.	32µM
Cc1cnn(-c2nc(-c3cccs3)cc(C(F)(F)F)n2)c1	.	.	.	.	.	.
Cc1ccc(CNC(=O)c2cnn3c(C)c(Cc4c(F)cccc4Cl)c(C)nc23)cc1	.	/	.	.	/	?
Cc1nc2c(C(=O)N3CCOCC3)cnn2c(C)c1Cc1ccc(Cl)cc1	.	/	.	.	.	28µM
Cc1cc(C)c(Cc2c(C)nc3c(C(=O)NCc4ccco4)cnn3c2C)c(C)c1	?	18µM	.	.	.	20µM
Cc1nc2c(C(=O)NC(C)c3ccccc3)cnn2c(C)c1Cc1ccccc1 (stereo not given)	.	/	.	.	/	32µM
Cc1nc2c(C(=O)N3CCOCC3)cnn2c(C)c1Cc1cccc(Cl)c1	/	/	.	/	.	/
Cc1nc2c(C(=O)NCCc3ccc(Cl)cc3)cnn2c(C)c1Cc1ccc(F)cc1	.	/	.	.	/	25µM
CN(C)c1ccc(-c2cc[nH]c(=O)c2N)cc1	.	.	/	/	/	/
O=C1CN(C(=O)c2cccc(F)c2)C(c2ccc(F)cc2)c2cc(F)ccc2N1 (stereo not given)	.	.	.	.	.	.
O=C1CN(C(=O)c2ccc(Br)o2)C(c2ccc(F)cc2)c2cc(F)ccc2N1 (stereo not given)	.	16µM	.	.	.	.
CCc1ccc(NC(=O)Cn2c(=O)n(CCCCC(=O)NCc3ccc4c(c3)OCO4)c(=O)c3ccccc32)cc1	.	.	.	.	/	?
N#Cc1nc(Cc2ccccc2)oc1NCc1cccnc1	.	.	.	.	.	28µM
COc1ccc(-c2nc(C#N)c(NCc3cccnc3)o2)cc1OC	.	.	.	.	.	28µM
N#Cc1nc(-c2ccco2)oc1NCc1cccnc1	.	.	.	?	.	.
N#Cc1nc(Cc2ccccc2)oc1NCc1ccccc1Cl	.	.	.	.	.	.
N#Cc1nc(-c2cccc(Cl)c2)oc1NCc1cccnc1	.	?	.	.	.	2.2µM
CCOC(=O)C1CCCN(c2c(C(=O)c3ccccc3)cnc3ccc(F)cc23)C1 (stereo not given)	.	.	.	.	/	.
CCOC(=O)c1ccc(NC(=O)CSc2ccc(-c3sc(C)nc3C)nn2)cc1	.	/	.	.	/	.
Cc1ccc(NC(=O)OCC(F)(F)C(F)F)cc1NC(=O)OCC(F)(F)C(F)F	/	18µM	.	.	.	.
CCN(CC)c1cc2c(cc1F)c(=O)c(S(=O)(=O)c1ccc(OC)cc1)cn2CC	.	.	.	.	/	.
CCOCCCNC(=O)/C(C#N)=C/c1cc(OC)c(O)c([N+](=O)[O-])c1	18µM	.	.	.	.	/
CCOCCCNC(=O)/C(C#N)=C/c1ccc(Cl)c([N+](=O)[O-])c1	.	.	?	.	.	/
SMILES	A549 viability	Nrf2 inh	miR-21 FLuc	Nrf2 activator	p53 reactivator	ClpP mod
CCOC(=O)c1c(NC(=O)c2ccccc2N(C)S(=O)(=O)c2ccccc2)sc2c1CCCC2	.	.	.	.	?	13µM
CCOC(=O)c1c(NC(=O)c2ccc(C)cc2)sc2c1CCCCC2	.	.	.	.	/	.
CCOC(=O)c1c(NC(=O)c2ccn(CC)n2)sc2c1CCCC2	.[1.84 µM]	?	.	.	.	25µM
CC(C)c1ccc(Nc2cc(C(=O)NC3CCCCC3)c3ccccc3n2)cc1	.	.	.	.	/	?
CC(=O)c1ccc(NC(=O)c2ccc(-n3cnnn3)cc2)cc1	.	.	/	.	.	/
Cc1cccn2c(N)c(-c3ccccc3)nc12	.	.	.	.	?	16µM
COc1ccc(-c2nc3c(c(SCC(=O)N4CCCCC4)n2)Cc2c(CO)cnc(C)c2O3)cc1	.	.	.	.	/	.
O=C(O)c1cc(N2C(=O)C3C4C=CC(C4)C3C2=O)ccc1NCc1cccnc1 (stereo not given)	.	.	.	.	.	35µM
CCOC(=O)c1cnc(SCC(=O)Nc2ccc(NC(C)=O)c(OC)c2)nc1N	.	?	.	.	.	.
CCc1nc(SCC(=O)Nc2nnc(CC)s2)c2c(C)c(C)sc2n1	.	.	.	.	.	.
Cc1sc2nc(C(C)C)nc(SCC(=O)NC3CC3)c2c1C	.	.	.	.	.	/
CCOC(=O)c1cnc(SCC(=O)Nc2cc(OC)ccc2OC)nc1N	.	10µM	.	.	.	.
Cc1cc(NC(=O)CSc2nc(C(C)C)nc3sc(C)c(C)c23)no1	?	15µM	.	.	.	.
CCc1nc(SCC(=O)Nc2cc(OC)ccc2OC)c2c(C)c(C)sc2n1	.	15µM	.	.	.	/
Cc1cccc([S+](=O)([O-])NC2CCN(C#N)CC2)c1	.	.	/	/	/	/
Cc1ccc(CCNC(=O)CCc2cn(Cc3ccccc3C)c3ccccc23)cc1	.	?	.	.	/	?
Cc1ccc(CN2CCN(CCCc3ccccc3)CC2CCO)cc1 (stereo not given)	?	?	.	.	.	.
OCCC1CN(CCCc2ccccc2)CCN1Cc1ccc(F)cc1 (stereo not given)	.	.	.	.	.	32µM
Cc1ccc(NS(=O)(=O)c2ccc3c(c2)CCC(=O)N3)cc1F	.	.	/	/	/	/
Cc1ccc[n+](CC(=O)c2ccc(Br)cc2)c1	.	23µM	.	.	/	.
Cc1ccc[n+](CC(=O)c2ccccc2)c1	/	/	.	/	.	/
O=C(NCC1CCCO1)c1coc2nc3ccccc3nc12 (stereo not given)	.	.	.	.	?	.
COc1ccc(-n2c(N)c(C(=O)NCC3CCCO3)c3nc4ccccc4nc32)c(OC)c1 (stereo not given)	?	?	.	.	.	32µM
COc1ccc(N=c2oc3cc(O)ccc3cc2C(=O)NCC2CCCO2)cc1 (stereo not given)	.	.	.	.	.	.
C=CCn1c(N)c(C(=O)NCC2CCCO2)c2nc3ccccc3nc21 (stereo not given)	?	.	.	.	.	8.9µM
COc1ccc(N=c2oc3cc(O)ccc3cc2C(=O)NCC2CCCO2)c(OC)c1 (stereo not given)	.	.	.	.	.	25µM
COCC(=O)N(CCc1ccc(OC)c(OC)c1)Cc1cc2cc(C)ccc2nc1Cl	.	16µM	.	.	.	/
